This test addresses Vasopressin V2 receptor (Rattus norvegicus, UniProt Q00788). Put plainly: Evaluated for binding affinity towards vasopressin V2 receptor in rat. The method, boiled down: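 Binding IC50 measured in cells transfected with rat V1a or rat V2 receptors.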

Protein sequences, listed by entry. Tags and fused reporters are not part of them.
UniProt Q00788, whole entry: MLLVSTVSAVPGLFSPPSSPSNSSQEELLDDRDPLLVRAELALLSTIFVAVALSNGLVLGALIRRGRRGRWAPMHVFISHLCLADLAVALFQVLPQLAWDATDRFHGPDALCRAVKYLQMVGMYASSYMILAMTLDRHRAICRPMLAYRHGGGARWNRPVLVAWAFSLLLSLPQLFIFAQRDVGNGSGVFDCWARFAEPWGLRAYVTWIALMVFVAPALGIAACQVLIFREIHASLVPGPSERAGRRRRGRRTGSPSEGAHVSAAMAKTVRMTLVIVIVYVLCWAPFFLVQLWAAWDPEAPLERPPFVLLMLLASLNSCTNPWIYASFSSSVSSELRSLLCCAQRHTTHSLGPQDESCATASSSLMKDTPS

For `CN(C)CCNC(=O)C1=C[C@]2(CC1)CCN(C(=O)c1ccc(NC(=O)c3ccccc3-c3ccccc3)cc1)c1ccccc1C2`, the IC50 (as a rule, the midpoint of a concentration-inhibition curve) amounted to 5 nM.

The values above are taken from ChEMBL document CHEMBL1146639, “Synthesis and evaluation of nonpeptide substituted spirobenzazepines as potent vasopressin antagonists” (Bioorg Med Chem Lett, 2004).
